According to PubChem BioAssay AID485349 (National Center for Advancing Translational Sciences (NCATS), 2010):
Only a part is listed here, and it is no random draw. The source made the active and inactive calls. Calls follow the shape of the dose curve; as a rule, active = well fitted activation curve with a large enough effect; inconclusive = small, poorly fitted or top-dose-only effect; inactive = no such curve, though single readings can be large or run the other way.

Experiment: qHTS Assay for Identifying a Potential Treatment of Ataxia-Telangiectasia; also: % of control where 0% means no effect; nearly all actives have a fitted effect of over 45% in size
Settings: […] A-T fibroblasts, KAP-1 phosphorylation AlphaLISA, neocarzinostatin DNA damage 30 min before lysis; at 57.5 µM (top of the series) unless noted
Description: NIH Chemical Genomics Center [NCGC] NIH Molecular Libraries Probe Centers Network [MLPCN] MLPCN Grant: MH089030-01 Assay Submitter (PI): Wei Zheng and Yosef Shiloh Ataxia-telangiectasia (A-T) is a devastating and progressive disease for which, there is no cure. Although A-T is a multisystem disease, it is stereotyped characterized by its neurological symptoms such as truncal ataxia, due to cerebellar cortical degeneration of the Purkinje and granule cells. Other symptoms of A-T are telangiectasias (dilated blood vessels), primary immunodeficiency, marked sensitivity to ionizing radiation (IR), chromosomal instability and predisposition to cancer. The underlying genetic cause of A-T is null mutations in the ATM (A-T mutated) gene. ATM is a nuclear serine/threonine kinase that functions as a master regulator of the cellular responses to double strand breaks (DSBs) in the DNA. Upon activation by DSBs, ATM phosphorylates a plethora of down stream targets, including KAP-1 on […]. KAP-1 phosphorylation occurs shortly in response to DSBs and mediates global chromatin relaxation, which facilitates DSB repair. To screen for small molecules that will compensate for the loss of ATM in cells derived from A-T patients, we monitored KAP-1 phosphorylation as a readout for ATM-like activity using an AlphaLISA assay.
qHTS Assay Protocol: Step,Parameter,Value,Description 1. Cell Plating, 3 ul, 500 cells/well in OPTI-MEM, 1% FBS, 1% Pen/Strep 2. Incubation, 16-24 hr, 37C, 5% CO2, 95% humidity 3. Library compounds, 23 nl, 76.7 - 0.61uM dilution series final concentration 4. Incubation, 60 min, 37C, 5% CO2, 95% humidity 5. Reagent, 1 ul, 1600 ng/ml NCS in PBS + 0.05% BSA + 0.005% Tween 20 6. Incubation, 30 min, 37C, 5% CO2, 95% humidity 7. Reagent, 1 ul, Premixed detection reagents and lysis buffer 8. Reagent, 1 ul, 0.6% Antifoam A 9. Incubation, 6 hr, 25C, 95% humidity 10. Readout, EnVision, EnVision plate reader. AlphaScreen 1536-well protocol Cells were plated using medium-binding white solid-bottom tissue culture treated Kalypsys plates. Multidrop dispense of 3 uL of […] (hTERT immortalized A-T patient fibroblast cells). Detection reagent and lysis buffer was 3.75nM Rab-a-pKAP1 antibody bound to 75 ng/ul AlphaScreen SA donor bead, 3.75 nM Biot-M-a-KAP1 antibody bound to AlphaLISA protein A acceptor bead, 0.5x protease inhibitor cocktail and 0.25x PerkinElmer lysis buffer. EnVision protocol for 1536-well AlphaScreen read (30ms excitation, 100ms read), about 10 min/plate.

Row | Compound | activation
1 | CC(C)(C)C(=O)NC(Sc1ccccc1)C(Cl)(Cl)Cl (stereo not drawn) | inactive: 4.86%
2 | O=P1(Nc2nc3ccc(Cl)cc3s2)COc2ccccc2O1 (stereo not drawn) | inactive: -2.25%
3 | CCOc1ccc(C2=NCC(CBr)S2)cc1 (stereo not drawn) | inactive: 0.513%
4 | CC(=O)Nc1ccc([As](=O)(O)O)c(O)c1 | inactive: -0.561%
5 | CC(=O)Nc1ccc(Oc2c([N+](=O)[O-])cc([N+](=O)[O-])cc2[N+](=O)[O-])cc1 | inactive: -12.9%
6 | Cc1ccccc1CN(C)C(=O)COC(=O)C(O)(c1ccccc1)c1ccccc1 | inactive: 7.37%
7 | C[C@H]1OP(=O)(Oc2ccccc2)C[C@@H]2O[C@@H]21 (stereo partly drawn) | inactive: 24.3%
8 | C[C@@H]1C=CCP(=O)(Oc2ccccc2)O1 (stereo partly drawn) | inactive: -21.6%
9 | CC(=O)c1ccc(N2CC2c2ccncc2)cc1 (stereo not drawn) | inactive: 2.94%
10 | c1ccc(-c2nn[nH]n2)c(-c2nn[nH]n2)c1 | inactive: 12.8%
11 | Cc1ccc(NP(=O)(Oc2cccc(C)c2)Oc2cccc(C)c2)nc1 | inactive: -3.85%
12 | CCOC(=O)NC(Sc1ccccc1)C(Cl)(Cl)Cl (stereo not drawn) | inactive: -4.44%
13 | O=C(NC1CCS(=O)(=O)C1)NP(=S)(Oc1ccccc1)Oc1ccccc1 (stereo not drawn) | inactive: 1.98%
14 | CCNC(=S)/N=C(\N)N[N+](=O)[O-] | inactive: 5%
15 | CC(NC(=O)COC(=O)C(O)(c1ccccc1)c1ccccc1)c1ccccc1 (stereo not drawn) | inactive: 9.58%
16 | Cc1ccccc1OP(=O)(Nc1ccccn1)Oc1ccccc1C | inactive: 15.4%
17 | O=c1c2cc([N+](=O)[O-])ccc2[nH]c2c([N+](=O)[O-])cc([N+](=O)[O-])cc12 | inactive: 1.22%
18 | CN(C)C(=O)Oc1noc2ccccc12 | inactive: 3.51%
19 | O=C(OC1CN2CCC1CC2)c1ccccc1 (stereo not drawn) | inactive: 3.51%
20 | CCC(=O)N1C2C3N(C(=O)CC)C1C1N(C(=O)CC)C(C(N1C(=O)CC)N3C(=O)CC)N2C(=O)CC | inactive: 3.61%
21 | COC(=O)c1cc2c(s1)N=C(c1ccccc1)N(C)P2(=O)N1CCOCC1 (stereo not drawn) | inactive: -2.68%

Row | Compound | activation
22 | CC(=O)NC(SC(=S)N(CC(C)C)CC(C)C)C(Cl)(Cl)Cl (stereo not drawn) | inactive: -2.67%
23 | Cc1ccc(OP(=O)(Nc2ccccn2)Oc2ccc(C)cc2)cc1 | inactive: 2.74%
24 | O=P(Nc1nc2ccccc2s1)(c1ccccc1)c1ccccc1 | inactive: -3.75%
25 | C[C@H]1OP(=O)(Oc2ccccc2)[C@H](O)[C@H](O)[C@H]1N=[N+]=[N-] (stereo partly drawn) | inactive: -18.9%
26 | CN(C)C1(CNC(=O)c2ccc(Cl)c(S(N)(=O)=O)c2)CCCCC1 | inactive: -11.2%
27 | O=P(Nc1ccccn1)(c1ccc(Br)cc1)c1ccc(Br)cc1 | inactive: -0.108%
28 | O=C(OC1CN2CCC1CC2)c1cccc(Cl)c1 (stereo not drawn) | inactive: -0.744%
29 | C(Cc1nn[nH]n1)Cc1nn[nH]n1 | inactive: -1.95%
30 | Nc1ccc([As](=O)(O)c2ccc([N+](=O)[O-])cc2)cc1 | inactive: 1.56%
31 | O=[As](O)(c1ccccc1)c1ccc(O)cc1 | inactive: 2.25%
32 | CC(=O)NC(SC(=S)N(C)C)C(Cl)(Cl)Cl (stereo not drawn) | inactive: -0.771%
33 | O=[N+]([O-])c1ncn(CCn2cnc([N+](=O)[O-])n2)n1 | inactive: 2.3%
34 | O=[N+]([O-])c1ccc(O)c(/C=N/Nc2ccc([N+](=O)[O-])cc2[N+](=O)[O-])c1 | inactive: -1.26%
35 | c1nnnn1CCn1cnnn1 | inactive: 2.53%
36 | O=P(Nc1nccs1)(c1ccccc1)c1ccccc1 | inactive: 3.26%
37 | CC(C)C(=O)NC(Sc1ccccc1)C(Cl)(Cl)Cl (stereo not drawn) | inactive: 6.78%
38 | Cc1ccc(NP(=O)(Oc2ccccc2)Oc2ccccc2)nc1 | inactive: 0.834%
39 | O=[N+]([O-])c1cc([N+](=O)[O-])c(CCNc2ccccc2)c([N+](=O)[O-])c1 | inactive: -4.72%
40 | CCc1nc2c(n1)c1c(non1O)c1c2no[n+]1[O-] | inactive: -7.69%
41 | CC(=O)N1C2C3N(C(C)=O)C1C1N(C(C)=O)C(C(N1C(C)=O)N3C(C)=O)N2C(C)=O | inactive: -4.09%
42 | O=[N+]([O-])c1cccc2n[nH]nc12 | inactive: 1.32%

Row | Compound | activation
43 | COc1ccc(C2=NCC(CBr)S2)cc1 (stereo not drawn) | inactive: 3.95%
44 | CC1CCN(C(=O)Oc2c(Cl)cc(Cl)c3cccnc23)CC1 | inactive: 2.94%
45 | CC(C)=N/N=C(\N)N[N+](=O)[O-] | inactive: 2.21%
46 | CN(C)C(=O)OCCc1n(C)cc[n+]1C | inactive: 13.3%
47 | CCN(/C(=N/P(=O)(N1CCOCC1)N1CCOCC1)N1CCOCC1)c1ccc(OC)cc1 | inactive: -3.43%
48 | Nc1ccc([As](=O)(O)c2ccc(N)cc2)cc1 | inactive: -4%
49 | C[N+]1=C2C=CC=CC=C2SC12C([N+](=O)[O-])=CC([N+](=O)[O-])=C[C-]2[N+](=O)[O-] (stereo not drawn) | inactive: -3.03%
50 | O=C(Nc1cc([As](=O)(O)O)ccc1O)c1ccccc1 | inactive: 3.92%
51 | O=C(O)CNc1ccc([As](=O)(O)O)cc1 | inactive: -5.12%
52 | O=[N+]([O-])c1cccc(NC2=NCC(CBr)S2)c1 (stereo not drawn) | inactive: 35.1%
53 | O=[N+]([O-])c1ncn(CCn2ncnc2[N+](=O)[O-])n1 | inactive: 2.94%
54 | CC(C)(C)C(=O)NC(Sc1ccncn1)C(Cl)(Cl)Cl (stereo not drawn) | inactive: 4.55%
55 | Cc1cc(SC(NC(=O)c2ccc(F)cc2)C(Cl)(Cl)Cl)ncn1 (stereo not drawn) | inactive: -1.83%
56 | CCOP(=O)(Nc1ccccc1)OCC | inactive: 6.94%
57 | Cc1ccc(NP(=O)(Oc2ccccc2F)Oc2ccccc2F)nc1 | inactive: 31.6%
58 | O=P(Nc1nc2ccc(Cl)cc2s1)(c1ccccc1)c1ccccc1 | inactive: -1.79%
59 | CC(=O)Nc1ccc([As](=O)(O)O)cc1 | inactive: -0.636%
60 | O=C(O)c1ccccc1[As](=O)(O)O | inactive: -4.65%
61 | Nc1cccc2ccc([As](=O)(O)O)cc12 | inactive: -4.85%
62 | CCN(N=Nc1nonc1N)c1nonc1N | inactive: -3.84%
63 | O=[N+]([O-])c1cc([N+](=O)[O-])c(CCN2CCOCC2)c([N+](=O)[O-])c1 | inactive: -20%
